## Ab-14 heavy chain CDR variants: yeast mating affinities

Reference: Engelhart et al. 2022, doi:10.1038/s41597-022-01779-4. File: FLAb, binding data.

The target is the same throughout: PDVDLGDISGINAS, from the HR2 region of SARS-CoV-2 spike.

Ab-14 is the parent antibody, in scFv form: VH, then a (GGGGS)3 linker, then VL. The light chain is unchanged in all variants.
VH: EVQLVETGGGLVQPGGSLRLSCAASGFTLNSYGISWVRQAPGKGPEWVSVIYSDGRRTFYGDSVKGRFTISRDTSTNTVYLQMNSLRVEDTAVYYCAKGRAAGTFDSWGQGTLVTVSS
VL: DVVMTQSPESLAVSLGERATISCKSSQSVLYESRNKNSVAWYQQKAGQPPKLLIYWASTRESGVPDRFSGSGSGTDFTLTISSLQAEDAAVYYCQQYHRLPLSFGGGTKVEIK

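AAYL49 was designed without a model: most single CDR substitutions and a random sample of double and triple ones. Affinity was read by AlphaSeq, a pooled yeast mating assay with surface-displayed partners. Pairs that bind mate more often; barcode pairs of the diploids are counted by sequencing. Scores were corrected for input abundance and mapped to Kd with protein pairs of known affinity run in the same pool. The assay was run in three technical replicates.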

Each variant is given by its three heavy chain CDRs, as the data file delimits them; those of the parent are GFTLNSYGIS, VIYSDGRRTFYGDSVK, GRAAGTFDS.
Numbers give log10(Kd / nM), so 0 is 1 nM and 3 is 1 µM. Smaller is tighter.
Averages over replicates are reported, and they cover detected replicates only.
"no signal" marks a missing value. The strain was present, yet no cells mated with the target were sequenced in any replicate, which points to weak or no binding.
Order: sorted from the lowest average up, undetected variants last.
Three control strains display no target. For library AAYL49, 15% of the pairings with them gave a signal, with a median of 4.06 and one signal in twenty below 2.83, so weak values seen in few replicates may be background. Also given: how often the same scFv was detected with the empty control strains.
Parent in this assay: reference entry 0.65, copy in this library 4.11 (one replicate of three).

mean, log10 nM | replicates with signal | control signals | CDR-H1 | CDR-H2 | CDR-H3
0.90 | 3/3 | 0/9 | GFTLNSYGIS | VIYSDGDRSFYGDSVK | GRLAGTFDS
1.43 | 3/3 | 1/9 | RFTLNSYGIS | VIYSDGRRTFYGESVK | PRAAGTFDS
1.98 | 3/3 | 0/9 | GFTLNSYGIS | VIYSDGRRTFYGDSVC | GRAAGTFDL
2.11 | 3/3 | 3/9 | GFPLLSYGIS | VIYSDGRRTHYGDSVK | GRAAGTFDS
2.41 | 3/3 | 2/9 | GFTLNSQGIS | VIYSDGRRTFYGDSVC | GRHAGTFDS
2.48 | 1/3 | 0/9 | GFTLNAYGFS | VIYSDGRRTFYGDSVK | GRAAGTFDS
2.55 | 3/3 | 5/9 | GFYLNSYGIS | VIYSDGRRTFYGDSKK | GRVAGTFDS
2.62 | 3/3 | 1/9 | GFTLNSYGIS | VIYPDGRRTGYGDSVK | GRAAGTFDS
2.91 | 1/3 | 0/9 | GFTLNSYGIS | VIYSDGRRRFYGDSVK | GRGAGTFKS
3.16 | 3/3 | 5/9 | GFTLNEYGIS | VIYSDGRRCFYGDSVK | GRVAGTFDS
3.40 | 1/3 | 1/9 | GFTLNSYGIS | VIYSDGRWTFPGDSVK | GNAAGTFDS
3.59 | 1/3 | 1/9 | GFNLNSYGIS | VIYSDGRRTFYGDSVK | RRAAGTQDS
3.69 | 1/3 | 3/9 | GFTLNSYIIS | VLYSDGRRTKYGDSVK | GRAAGTFDS
3.82 | 3/3 | 2/9 | TFTLNSYGIS | VIYEDGRGTFYGDSVK | GRAAGTFDS
3.83 | 3/3 | 3/9 | GFTLNSYGTS | IEYSDGRRTFYGDSVK | GRAAGTFDS
3.87 | 3/3 | 2/9 | GFTLNSYGIL | VIYSDGRRTFYGDIVK | GRAKGTFDS
3.87 | 1/3 | 1/9 | GFTLNSYGIS | SGRSDGRRTFYGDSVK | GRAAGTFDS
3.88 | 2/3 | 6/9 | GFTLNSYGIS | VIYSDGRRPFYGDSIK | GRAAGTVDS
3.92 | 2/3 | 0/9 | GFTLNSYGGS | VIYSDGRRRFYGDSLK | GRAAGTFDS
3.99 | 1/3 | 0/9 | WFTLNSYSIS | VIYSDGRRTFYGDSVK | GRASGTFDS
4.09 | 3/3 | 7/9 | GFSLNSYGIS | VRYSDGRRTFYGDEVK | GRAAGTFDS
4.26 | 3/3 | 2/9 | GCTLNSYYIS | VIYSDGRRTFYGFSVK | GRAAGTFDS
4.30 | 2/3 | 3/9 | GHTLNSYGIS | VIYSYGRRSFYGDSVK | GRAAGTFDS
4.35 | 1/3 | 1/9 | GFTLNSYGIS | VIYSVGRRTFYVDSVL | GRAAGTFDS
4.42 | 3/3 | 2/9 | GFTLNTYGIS | VIYSDGRDTFYGDSVK | GRALGTFDS
4.52 | 2/3 | 2/9 | GFTTNSYGGS | VIYSDGRRTFRGDSVK | GRAAGTFDS
4.64 | 1/3 | 6/9 | GFTLNSYGIS | VIPSDGRRTFRGDSVK | VRAAGTFDS
4.68 | 1/3 | 3/9 | GFCLNSYGIS | RIYSDGRDTFYGDSVK | GRAAGTFDS
4.70 | 1/3 | 2/9 | GFTLNSYGIS | VIYSDGRRTFYGESVK | GRFAGTYDS
4.70 | 1/3 | 1/9 | GFTINSYWIS | VIYSDGRSTFYGDSVK | GRAAGTFDS
4.75 | 1/3 | 1/9 | GFTLNSYGIS | VIYSWGRRTFYGDSVK | GRAASMFDS
4.75 | 1/3 | 8/9 | PFTLNSYGIS | VIYSDGRRTFYGDSVW | GRPAGTFDS
4.75 | 2/3 | 1/9 | GFTLPSVGIS | VIYSDGRRTFYGDSVK | GRAAGTFRS
4.80 | 1/3 | 0/9 | GFILNCYGIS | VIYCDGRRTFYGDSVK | GRAAGTFDS
4.81 | 1/3 | 3/9 | GFTLNEYGKS | VIYSDGRRTFYLDSVK | GRAAGTFDS
4.96 | 3/3 | 8/9 | GFTLNSYGIP | VIYSDGRRTFYGASVK | GRAAGTFDF
5.08 | 1/3 | 2/9 | GFTLNSSGIS | VIMSDGRRTFYGASVK | GRAAGTFDS
5.33 | 2/3 | 3/9 | GFTLNSYGIS | VISSDGKRTFYGDSVY | GRAAGTFDS
5.72 | 1/3 | 4/9 | GFTLASYGIS | VIYSKGRRTAYGDSVK | GRAAGTFDS
no signal | 0/3 | 0/9 | GRTLNSYGIS | VIYSQGRRTFYGDSVK | GRAAGTFDG
no signal | 0/3 | 0/9 | GINLNSYGIR | VIYSDGRRTFYGDSVK | GRAAGTFDS
no signal | 0/3 | 3/9 | GFTRNSYGIS | VIYSWGRRTFMGDSVK | GRAAGTFDS
no signal | 0/3 | 2/9 | GFTLNSYGIS | VKYSDGRRTFYGDSVM | GRAAGTFVS
no signal | 0/3 | 0/9 | GFTLNSYGIY | VIYSDHRRTFYGDYVK | GRAAGTFDS
no signal | 0/3 | 0/9 | GFTLNSYGIS | VIYSRGRRTFYGDSVW | GRAAGTFYS
no signal | 0/3 | 6/9 | GFTLLSYGIS | VIYSDGRRTFYTDSHK | GRAAGTFDS
no signal | 0/3 | 0/9 | GFTLNSYGHS | VIYSDGRTTFYGNSVK | GRAAGTFDS
no signal | 0/3 | 1/9 | GFTLNSMGIS | VIYSDGRRTFYSDSVK | GRAAGTFDS
no signal | 0/3 | 0/9 | GFTLNSMGIS | GIYSDGRRTFYGDSVK | GRAWGTFDS
no signal | 0/3 | 0/9 | GFTLNSYGIS | KIYWDGRRTFYGDSVK | GRADGTFDS
no signal | 0/3 | 0/9 | GFTNNQYGIS | VIYSDFRRTFYGDSVK | GRAAGTFDS
no signal | 0/3 | 1/9 | GFTLNSYGIS | VIYHDERRTFYGDSVK | GRAAGTFDS
no signal | 0/3 | 0/9 | YFTLNSYGIS | VIYSRGRRTFYGNSVK | GRAAGTFDS
no signal | 0/3 | 1/9 | GFTLNSKGIS | VIYSDGRRTFYGDSDK | GRAAGTFDW
no signal | 0/3 | 2/9 | GFTLNSYGIS | EIYSDGRRTFYGDSGK | GRAAGTADS
no signal | 0/3 | 0/9 | GFTLNSYGIA | VIYSDPRRTFYGDSVK | GRAAVTFDS
no signal | 0/3 | 0/9 | GFTLNSYGFS | VIYSDGARTFYYDSVK | GRAAGTFDS
no signal | 0/3 | 0/9 | GFTYNSYGIS | VIYSDGRRTFTGDSVK | GRAAGTFDS
no signal | 0/3 | 2/9 | GFTLNSYYIS | VIWSDGRRTFYGDSVK | GRAAGTFDN
no signal | 0/3 | 0/9 | GWNLNSYGIS | VIYSDGRRTFYGDSVK | GRAAGTCDS
no signal | 0/3 | 2/9 | GFTLYSYGIS | VIYSDGRRTFFGDSVK | GRPAGTFDS
no signal | 0/3 | 0/9 | GFTWNSYGIS | WIYSDGRRTFYGDSVK | GRARGTFDS
no signal | 0/3 | 0/9 | GFTLNSYGIS | VIYEDGRRTFYGDSVK | PMAAGTFDS
no signal | 0/3 | 0/9 | GFTLNSYGIS | AIYSDGRRTFYGDSVK | GIAAGTFDM
no signal | 0/3 | 0/9 | GFTLNSYGIS | VIHSDGRRTFYGDRVK | GRAAGTFDF
no signal | 0/3 | 0/9 | GSTLNSYGIS | VIYSDGRRTFGGDSVK | GRAATTFDS
no signal | 0/3 | 0/9 | GFTLNSYGIS | VIYSDGRRHMYGDSVK | GRAAGTFTS
no signal | 0/3 | 0/9 | GPTLNSYGIV | VIYSDGRRTFYGDSVK | GRAAGTFDS
no signal | 0/3 | 0/9 | GFGLNSYGIS | VIYSDGRRTFYGDSKP | GRAAGTFDS
no signal | 0/3 | 1/9 | GFTLNSYGIS | VIYEDGRRTFEGSSVK | GRAAGTFDS
no signal | 0/3 | 3/9 | GFTLNSYGIS | VIYSDGRGTLYGDGVK | GRAAGTFDS
no signal | 0/3 | 0/9 | GFTLNSYGIS | VIYSTGRRKFYGDSVK | GRAAGAFDS

For reference, 6 entries of the list once more:

CDR-H1	CDR-H2	CDR-H3	mean, log10 nM	replicates with signal	control signals
GFTLNSYGIS	AIYSDGRRTFYGDSVK	GIAAGTFDM	no signal	0/3	0/9
GFTLNSYYIS	VIWSDGRRTFYGDSVK	GRAAGTFDN	no signal	0/3	2/9
GFTLASYGIS	VIYSKGRRTAYGDSVK	GRAAGTFDS	5.72	1/3	4/9
GFTLNSYGIS	VIYEDGRRTFYGDSVK	PMAAGTFDS	no signal	0/3	0/9
GSTLNSYGIS	VIYSDGRRTFGGDSVK	GRAATTFDS	no signal	0/3	0/9
GFTLNSYGIS	VIYEDGRRTFEGSSVK	GRAAGTFDS	no signal	0/3	1/9